Test results from ChEMBL document CHEMBL1143255, “Standard protecting groups create potent and selective kappa opioids: salvinorin B alkoxymethyl ethers” (Bioorg Med Chem, 2008).

The chains behind the UniProt entries cited, without tags or fusion partners. Where a name states a change or a piece, a line headed by the entry shows the natural chain unless it says otherwise.
UniProt P41145: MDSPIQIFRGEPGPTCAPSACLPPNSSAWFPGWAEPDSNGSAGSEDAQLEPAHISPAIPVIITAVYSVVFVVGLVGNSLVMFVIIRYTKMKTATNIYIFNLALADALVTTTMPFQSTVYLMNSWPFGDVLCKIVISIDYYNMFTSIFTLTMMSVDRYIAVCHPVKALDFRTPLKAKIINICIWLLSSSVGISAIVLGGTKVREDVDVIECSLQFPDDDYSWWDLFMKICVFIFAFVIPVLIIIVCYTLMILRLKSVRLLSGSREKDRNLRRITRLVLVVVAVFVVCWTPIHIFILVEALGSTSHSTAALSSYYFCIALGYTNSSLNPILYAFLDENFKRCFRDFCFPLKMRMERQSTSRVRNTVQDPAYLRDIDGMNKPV

Legend:
[1] = target: T1, Kappa-type opioid receptor (Homo sapiens, UniProt P41145); test: Agonist activity at human kappa opioid receptor expressed in CHO cells assessed as stimulation of [35S]GTPgammaS binding; format: functional, cell-based
How it was run: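 Potency and efficacy from [35S]GTPγS binding to membranes of CHO cells stably expressing human κ receptor; testing blinded to compound identity and molecular mass.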

[2] = target: T1, Kappa-type opioid receptor; test: Displacement of [3H]diprenorphine from human kappa opioid receptor expressed in CHO cells; format: cell-based
How it was run: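 Competitive inhibition of [3H]diprenorphine binding to membranes from CHO cells stably transfected with human κ, rat μ or mouse δ receptor; testing blinded to compound identity and molecular mass; mean of three independent experiments in duplicate.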

CCOC(C)O[C@H]1C[C@@H](C(=O)OC)[C@]2(C)CC[C@H]3C(=O)O[C@H](c4ccoc4)C[C@]3(C)[C@H]2C1=O (some centres undefined) [listing 1 of 2 here]
EC50 [1]: 10 nM | Ki [2]: 11 nM

CCOC(C)O[C@H]1C[C@@H](C(=O)OC)[C@]2(C)CC[C@H]3C(=O)O[C@H](c4ccoc4)C[C@]3(C)[C@H]2C1=O (some centres undefined) [listing 2 of 2 here]
EC50 [1]: 5.7 nM | Ki [2]: 6.6 nM
